Molecular target: GST-PHAX (Homo sapiens (Human), UniProt Q9H814)
Test: GST pull-down with western blot; HeLa nuclear extract with ATP present

binding result: no binding
B1: FLAG-DBP5 (protein)
chain: MATDSWALAVDEQEAAAESLSNLHLKEEKIKPDTNGAVVKTNANAEKTDEEEKEDRAAQSLLNKLIRSNLVDNTNQVEVLQRDPNSPLYSVKSFEELRLKPQLLQGVYAMGFNRPSKIQENALPLMLAEPPQNLIAQSQSGTGKTAAFVLAMLSQVEPANKYPQCLCLSPTYELALQTGKVIEQMGKFYPELKLAYAVRGNKLERGQKISEQIVIGTPGTVLDWCSKLKFIDPKKIKVFVLDEADVMIATQGHQDQSIRIQRMLPRNCQMLLFSATFEDSVWKFAQKVVPDPNVIKLKREEETLDTIKQYYVLCSSRDEKFQALCNLYGAITIAQAMIFCHTRKTASWLAAELSKEGHQVALLSGEMMVEQRAAVIERFREGKEKVLVTTNVCARGIDVEQVSVVINFDLPVDKDGNPDNETYLHRIGRTGRFGKRGLAVNMVDSKHSMNILNRIQEHFNKKIERLDTDDLDEIEKIAN
